# Measurements from paper PMC2658647 (Annals of neurology, 2009).
# Target: eNOS (Bos taurus, UniProt P29473)
# Assay: NOS inhibition, hemoglobin capture assay
# Format: biochemical
# Conditions: read-out: Ki eNOS; apparent Ki; recombinant enzyme; 10 µM L-arginine
compound,measurement,value
"N=C(NCCC[C@H](N)C(=O)O)N[N+](=O)[O-] [L-NNA, L-N^ω-Nitroarginine]",Ki,750 nM
